{"source": "paper PMC10328330", "about": "(PLOS ONE, 2023)"}
{"test_system": "T. gondii tachyzoites (RH strain, clone 2F1)", "type": "cell-based, Toxoplasma gondii"}
{"smiles": "CNC(=O)c1cc(Oc2ccc(NC(=O)Nc3ccc(Cl)c(C(F)(F)F)c3)cc2)ccn1", "note": "[Compound 9, Sorafenib]", "Selectivity Index (SI)": 19}
{"smiles": "O=C(O)c1ccc2c(c1)nc(Nc1cccc(Cl)c1)c1ccncc12", "note": "[Compound 22, Silmitasertib]", "Selectivity Index (SI)": 44}
{"smiles": "COc1cc(NC(=O)Nc2cccc(CNC(=O)O[C@H]3CCOC3)c2)ccc1-c1cnco1", "note": "[Compound 24, Merimepodib]", "Selectivity Index (SI)": 34}
{"smiles": "CCc1nc(N)nc(N)c1-c1ccc(Cl)cc1", "note": "[Compound 30, Pyrimetamine]", "Selectivity Index (SI)": ">135"}
